{"sequences": {"note": "Protein sequences, listed by entry. Tags and fused reporters are not part of them. Lines headed by an entry give the natural chain unless they say otherwise; changes in a name come on top. Residues count along the entry.", "UniProt P02710, 25-461": "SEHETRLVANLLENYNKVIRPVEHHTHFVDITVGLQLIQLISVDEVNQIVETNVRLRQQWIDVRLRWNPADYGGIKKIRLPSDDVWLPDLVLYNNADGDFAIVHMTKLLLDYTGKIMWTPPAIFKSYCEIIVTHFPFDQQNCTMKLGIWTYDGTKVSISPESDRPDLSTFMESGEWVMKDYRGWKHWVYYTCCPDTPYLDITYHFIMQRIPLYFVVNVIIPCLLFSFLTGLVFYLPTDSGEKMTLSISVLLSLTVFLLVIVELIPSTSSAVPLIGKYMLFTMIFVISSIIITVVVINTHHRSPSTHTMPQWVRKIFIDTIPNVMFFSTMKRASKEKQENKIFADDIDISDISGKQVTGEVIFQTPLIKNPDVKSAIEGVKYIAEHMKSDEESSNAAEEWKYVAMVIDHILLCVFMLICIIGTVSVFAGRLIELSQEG", "UniProt P02712, 25-493": "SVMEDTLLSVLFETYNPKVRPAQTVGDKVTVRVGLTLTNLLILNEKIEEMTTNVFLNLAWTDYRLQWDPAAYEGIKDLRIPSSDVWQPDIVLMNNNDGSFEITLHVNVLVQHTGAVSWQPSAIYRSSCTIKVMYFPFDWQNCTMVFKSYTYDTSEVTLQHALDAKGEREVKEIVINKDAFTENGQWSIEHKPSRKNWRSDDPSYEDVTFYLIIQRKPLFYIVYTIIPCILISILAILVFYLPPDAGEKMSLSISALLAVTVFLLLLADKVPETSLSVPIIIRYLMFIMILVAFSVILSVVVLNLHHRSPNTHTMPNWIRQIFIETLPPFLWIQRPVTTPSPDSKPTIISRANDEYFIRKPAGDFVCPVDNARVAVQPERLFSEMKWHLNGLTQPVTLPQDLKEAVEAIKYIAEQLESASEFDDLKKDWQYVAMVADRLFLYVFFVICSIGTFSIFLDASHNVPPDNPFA", "UniProt P02714, 18-506": "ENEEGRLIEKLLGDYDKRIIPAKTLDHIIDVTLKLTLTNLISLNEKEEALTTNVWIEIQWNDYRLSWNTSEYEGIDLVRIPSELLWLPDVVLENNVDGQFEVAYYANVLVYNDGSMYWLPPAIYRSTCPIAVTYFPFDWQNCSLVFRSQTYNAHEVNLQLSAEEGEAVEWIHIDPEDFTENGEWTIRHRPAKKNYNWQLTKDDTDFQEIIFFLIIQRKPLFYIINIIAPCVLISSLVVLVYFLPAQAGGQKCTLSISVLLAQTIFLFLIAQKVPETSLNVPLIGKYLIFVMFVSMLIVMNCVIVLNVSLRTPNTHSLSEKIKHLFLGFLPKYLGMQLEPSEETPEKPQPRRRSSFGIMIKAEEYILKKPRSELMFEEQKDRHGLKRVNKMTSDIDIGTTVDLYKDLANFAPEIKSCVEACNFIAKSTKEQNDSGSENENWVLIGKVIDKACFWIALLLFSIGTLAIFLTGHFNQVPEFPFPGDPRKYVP", "UniProt P02718, 22-522": "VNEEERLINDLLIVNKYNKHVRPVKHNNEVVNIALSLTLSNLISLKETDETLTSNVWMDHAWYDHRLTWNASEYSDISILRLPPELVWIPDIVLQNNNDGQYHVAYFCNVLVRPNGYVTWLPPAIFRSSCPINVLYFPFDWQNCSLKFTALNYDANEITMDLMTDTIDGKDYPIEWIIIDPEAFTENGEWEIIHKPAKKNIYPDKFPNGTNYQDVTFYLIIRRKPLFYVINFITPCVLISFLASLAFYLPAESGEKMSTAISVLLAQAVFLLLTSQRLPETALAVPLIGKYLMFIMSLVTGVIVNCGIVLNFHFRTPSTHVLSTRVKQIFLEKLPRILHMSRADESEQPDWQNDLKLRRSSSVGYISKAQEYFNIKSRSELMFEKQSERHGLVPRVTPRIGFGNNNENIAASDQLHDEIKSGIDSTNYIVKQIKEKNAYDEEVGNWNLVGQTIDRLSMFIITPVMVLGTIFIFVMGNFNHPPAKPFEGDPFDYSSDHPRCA", "UniProt P07510, 23-517": "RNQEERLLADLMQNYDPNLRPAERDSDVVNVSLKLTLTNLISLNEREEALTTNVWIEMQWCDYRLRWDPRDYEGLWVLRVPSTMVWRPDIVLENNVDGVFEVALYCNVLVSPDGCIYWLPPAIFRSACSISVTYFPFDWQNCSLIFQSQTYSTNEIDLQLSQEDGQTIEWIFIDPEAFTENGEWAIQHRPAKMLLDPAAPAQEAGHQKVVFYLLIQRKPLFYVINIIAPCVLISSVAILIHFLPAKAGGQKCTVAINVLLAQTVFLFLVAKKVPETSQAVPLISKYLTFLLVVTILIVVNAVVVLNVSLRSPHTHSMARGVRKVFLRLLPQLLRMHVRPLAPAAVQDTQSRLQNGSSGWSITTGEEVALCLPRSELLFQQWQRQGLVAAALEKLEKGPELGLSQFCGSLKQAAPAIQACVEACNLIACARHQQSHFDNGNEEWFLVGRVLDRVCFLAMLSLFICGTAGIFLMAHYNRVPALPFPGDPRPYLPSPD", "UniProt P11230, 24-501": "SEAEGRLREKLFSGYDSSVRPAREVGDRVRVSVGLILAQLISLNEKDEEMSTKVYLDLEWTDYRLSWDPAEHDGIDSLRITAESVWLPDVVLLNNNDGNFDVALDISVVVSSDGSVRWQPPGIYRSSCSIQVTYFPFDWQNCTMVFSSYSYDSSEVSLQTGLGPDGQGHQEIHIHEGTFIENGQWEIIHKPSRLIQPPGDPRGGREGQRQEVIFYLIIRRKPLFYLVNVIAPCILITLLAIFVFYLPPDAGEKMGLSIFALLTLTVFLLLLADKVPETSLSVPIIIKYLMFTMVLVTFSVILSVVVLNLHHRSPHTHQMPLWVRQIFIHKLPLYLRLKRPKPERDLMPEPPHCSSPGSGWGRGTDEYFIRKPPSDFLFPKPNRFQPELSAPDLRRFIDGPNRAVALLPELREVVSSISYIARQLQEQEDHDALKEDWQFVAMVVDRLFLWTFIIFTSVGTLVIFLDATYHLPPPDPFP", "UniProt Q07001, 22-517": "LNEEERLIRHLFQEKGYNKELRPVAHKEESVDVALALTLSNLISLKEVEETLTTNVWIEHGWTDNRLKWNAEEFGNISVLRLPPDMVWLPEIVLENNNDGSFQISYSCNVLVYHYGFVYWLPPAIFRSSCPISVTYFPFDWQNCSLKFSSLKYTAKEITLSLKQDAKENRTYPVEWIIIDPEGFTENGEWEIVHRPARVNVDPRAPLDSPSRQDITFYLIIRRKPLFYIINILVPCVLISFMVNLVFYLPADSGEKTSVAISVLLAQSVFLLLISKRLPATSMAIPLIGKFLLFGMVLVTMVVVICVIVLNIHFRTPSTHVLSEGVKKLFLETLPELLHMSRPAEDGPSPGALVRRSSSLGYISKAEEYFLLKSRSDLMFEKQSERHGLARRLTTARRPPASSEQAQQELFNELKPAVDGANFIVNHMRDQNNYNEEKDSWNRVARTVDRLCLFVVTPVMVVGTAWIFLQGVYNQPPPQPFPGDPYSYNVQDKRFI"}, "source": "paper PMC3787694", "about": "(Biochimica et biophysica acta, 2010)", "key": {"[1]": {"molecular_target": "Torpedo AChR ion channel ([3H]18-MC site) (Tetronarce californica, UniProt P02710+P02712+P02714+P02718)", "format": "binding"}, "[2]": {"molecular_target": "human fetal muscle AChR (α1β1γδ) in TE671 cells (Homo sapiens, UniProt P02708+P07510+P11230+Q07001)", "format": "cell-based", "conditions": "read-out: IC50 (inhibition of agonist-activated AChR ion channel flux)"}, "Torpedo AChR": {"molecular_target": "Torpedo AChR (Tetronarce californica, UniProt P02710+P02712+P02714+P02718)", "conditions": "read-out: apparent EC50 (50% increase of [3H]cytisine binding); 7.7 nM [3H]cytisine; resting but activatable state"}}, "note": "Like-named read-outs stand apart in the source and are kept apart here."}
{"substance": "ibogaine", "values": [{"measurement": "Ki", "setting": "[1]; desensitized/CCh-bound state", "value": "9.3 ± 0.6", "unit": "µM"}, {"measurement": "Ki", "setting": "[1]; resting/α-BTx-bound state", "value": "11 ± 1", "unit": "µM"}, {"measurement": "IC50", "setting": "[2]", "value": "17 ± 3", "unit": "µM"}, {"measurement": "EC50", "setting": "Torpedo AChR", "value": "28 ± 10", "unit": "µM"}]}
